The values below come from PMC2222611, “Species-specific pharmacology of Trichloro(sulfanyl)ethyl benzamides as transient receptor potential ankyrin 1 (TRPA1) antagonists” (2007).

Chains of the proteins cited; added tags and fusions are not shown.
UniProt O75762, whole entry, looked up: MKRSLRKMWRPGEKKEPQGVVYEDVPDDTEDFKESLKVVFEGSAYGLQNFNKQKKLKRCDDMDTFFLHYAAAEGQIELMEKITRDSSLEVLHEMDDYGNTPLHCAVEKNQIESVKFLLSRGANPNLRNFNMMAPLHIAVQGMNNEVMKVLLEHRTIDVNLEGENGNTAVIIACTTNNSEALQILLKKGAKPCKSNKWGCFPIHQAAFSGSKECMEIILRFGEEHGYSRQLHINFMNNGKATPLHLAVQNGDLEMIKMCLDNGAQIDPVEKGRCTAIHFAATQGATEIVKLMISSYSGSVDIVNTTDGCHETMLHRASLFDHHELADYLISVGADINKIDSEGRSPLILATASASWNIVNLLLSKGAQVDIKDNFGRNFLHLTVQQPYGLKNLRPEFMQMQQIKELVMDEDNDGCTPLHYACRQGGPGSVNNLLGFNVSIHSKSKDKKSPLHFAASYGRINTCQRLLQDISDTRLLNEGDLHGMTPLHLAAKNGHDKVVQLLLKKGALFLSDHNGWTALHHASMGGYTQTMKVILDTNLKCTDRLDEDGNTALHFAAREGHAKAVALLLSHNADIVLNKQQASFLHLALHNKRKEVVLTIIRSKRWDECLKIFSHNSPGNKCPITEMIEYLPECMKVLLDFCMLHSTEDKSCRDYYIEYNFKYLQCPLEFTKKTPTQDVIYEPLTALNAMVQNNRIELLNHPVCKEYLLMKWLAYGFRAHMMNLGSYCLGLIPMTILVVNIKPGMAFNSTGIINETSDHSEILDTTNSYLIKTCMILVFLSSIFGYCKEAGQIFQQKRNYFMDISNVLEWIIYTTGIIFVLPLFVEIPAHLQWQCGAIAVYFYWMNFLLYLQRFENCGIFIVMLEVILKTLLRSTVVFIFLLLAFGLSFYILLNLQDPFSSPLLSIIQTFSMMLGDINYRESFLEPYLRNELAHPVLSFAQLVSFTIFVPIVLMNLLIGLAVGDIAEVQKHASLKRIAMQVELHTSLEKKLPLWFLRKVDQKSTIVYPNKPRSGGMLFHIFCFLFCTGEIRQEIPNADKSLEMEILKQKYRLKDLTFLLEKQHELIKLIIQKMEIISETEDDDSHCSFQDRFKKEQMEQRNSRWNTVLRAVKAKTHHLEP
UniProt Q6RI86, whole entry, looked up: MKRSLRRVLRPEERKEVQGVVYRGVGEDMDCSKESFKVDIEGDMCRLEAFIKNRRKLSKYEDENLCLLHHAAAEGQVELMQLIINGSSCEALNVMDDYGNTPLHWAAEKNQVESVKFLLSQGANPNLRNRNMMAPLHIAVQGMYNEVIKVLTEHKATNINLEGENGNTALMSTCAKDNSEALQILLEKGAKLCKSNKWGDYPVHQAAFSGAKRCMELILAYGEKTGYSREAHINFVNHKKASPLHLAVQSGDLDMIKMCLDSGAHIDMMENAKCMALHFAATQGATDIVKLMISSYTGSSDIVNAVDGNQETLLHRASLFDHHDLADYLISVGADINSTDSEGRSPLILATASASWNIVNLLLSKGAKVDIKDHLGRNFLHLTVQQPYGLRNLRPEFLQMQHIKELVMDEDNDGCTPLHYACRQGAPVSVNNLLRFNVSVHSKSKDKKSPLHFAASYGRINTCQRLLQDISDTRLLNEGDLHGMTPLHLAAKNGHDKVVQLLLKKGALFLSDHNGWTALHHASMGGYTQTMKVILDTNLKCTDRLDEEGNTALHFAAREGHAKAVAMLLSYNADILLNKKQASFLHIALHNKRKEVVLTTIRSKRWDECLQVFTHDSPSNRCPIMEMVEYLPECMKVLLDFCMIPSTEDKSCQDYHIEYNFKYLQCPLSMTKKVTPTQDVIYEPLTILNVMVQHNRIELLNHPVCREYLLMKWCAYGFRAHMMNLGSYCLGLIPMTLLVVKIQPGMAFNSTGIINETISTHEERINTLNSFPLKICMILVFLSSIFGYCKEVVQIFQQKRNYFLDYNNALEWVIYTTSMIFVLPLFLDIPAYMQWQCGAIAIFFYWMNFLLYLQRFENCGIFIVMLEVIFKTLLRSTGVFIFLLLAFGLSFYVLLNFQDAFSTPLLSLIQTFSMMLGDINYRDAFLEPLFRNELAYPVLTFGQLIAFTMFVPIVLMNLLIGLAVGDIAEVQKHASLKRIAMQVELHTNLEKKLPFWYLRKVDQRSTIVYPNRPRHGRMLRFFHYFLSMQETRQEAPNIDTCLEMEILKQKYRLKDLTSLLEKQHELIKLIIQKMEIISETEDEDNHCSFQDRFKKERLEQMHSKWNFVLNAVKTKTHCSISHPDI
UniProt Q8NER1, whole entry, looked up: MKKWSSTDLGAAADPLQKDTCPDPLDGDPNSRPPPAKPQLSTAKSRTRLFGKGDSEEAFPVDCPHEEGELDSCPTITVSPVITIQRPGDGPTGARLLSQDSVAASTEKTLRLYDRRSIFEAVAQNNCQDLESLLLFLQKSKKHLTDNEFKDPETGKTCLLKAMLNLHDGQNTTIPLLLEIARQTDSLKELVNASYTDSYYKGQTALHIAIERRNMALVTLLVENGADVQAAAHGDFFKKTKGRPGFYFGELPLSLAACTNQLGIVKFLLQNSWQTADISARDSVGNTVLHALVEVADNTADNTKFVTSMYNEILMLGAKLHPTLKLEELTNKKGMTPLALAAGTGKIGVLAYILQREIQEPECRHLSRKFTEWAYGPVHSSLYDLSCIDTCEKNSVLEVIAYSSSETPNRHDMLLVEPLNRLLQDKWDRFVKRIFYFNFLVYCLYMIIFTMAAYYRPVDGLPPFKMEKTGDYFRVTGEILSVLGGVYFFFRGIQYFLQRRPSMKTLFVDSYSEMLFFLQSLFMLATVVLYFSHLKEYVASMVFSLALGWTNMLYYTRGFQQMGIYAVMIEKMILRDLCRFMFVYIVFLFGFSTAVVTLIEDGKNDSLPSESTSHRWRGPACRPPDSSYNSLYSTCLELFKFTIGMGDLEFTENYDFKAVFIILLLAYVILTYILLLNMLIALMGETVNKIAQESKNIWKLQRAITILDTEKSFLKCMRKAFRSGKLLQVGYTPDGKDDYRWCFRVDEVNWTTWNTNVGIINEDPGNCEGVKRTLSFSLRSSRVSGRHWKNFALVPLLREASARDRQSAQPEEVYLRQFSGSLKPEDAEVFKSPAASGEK

The target in test [1] is T1, hTRPA1 (Homo sapiens, UniProt O75762). As to the kind of experiment: Cold antagonism assay (45Ca2+ uptake) in CHO cells expressing human TRPA1. Conditions: read-out: IC50 for inhibition of noxious cold-induced 45Ca2+ uptake, human TRPA1, cold 3.5°C (legends: 4°C).
In test [2] the target is T1, hTRPA1. As to the kind of experiment: Whole-cell voltage-clamp electrophysiology (PatchXpress 7000A) in CHO cells expressing hTRPA1. To be noted: read-out: IC50 for inhibition of AITC-induced currents, human TRPA1, 80 μM AITC, holding potential -70 mV.
The target of a further test is rTRPA1 (Rattus norvegicus, UniProt Q6RI86). As to the kind of experiment: Whole-cell voltage-clamp electrophysiology (PatchXpress 7000A) in CHO cells expressing rTRPA1.
The next test deals with rat TRPA1 (Rattus norvegicus, UniProt Q6RI86). As to the kind of experiment: Aequorin luminescence readout assay for intracellular calcium in CHO cells expressing rat TRPA1. To be noted: for maximum efficacy at rat TRPA1 compared to 80 μM AITC efficacy / EC50 / agonism at rat TRPA1 (increase in intracellular calcium by compound alone): compound alone; for maximum efficacy at rat TRPA1 compared to 80 μM AITC efficacy: relative to 80 μM AITC; for EC50: read-out: EC50 for increase in intracellular calcium at rat TRPA1 (partial agonism), CHO cells expressing rat TRPA1; for IC50: read-out: IC50 for inhibition of AITC-induced increase in intracellular calcium, rat TRPA1, 80 μM AITC, marginal inhibition; for agonism at rat TRPA1 (increase in intracellular calcium by compound alone): up to 50 μM. In general terms: Calcium assays in cells follow changes in intracellular calcium, usually with a dye or a luminescent sensor.

Test [3] addresses T1, hTRPA1. In words: Aequorin luminescence readout assay for intracellular calcium in CHO cells expressing human TRPA1. To be noted: read-out: IC50 for inhibition of AITC activation of human TRPA1 (increase in intracellular calcium), 80 μM AITC.
A further test addresses hTRPV1 (Homo sapiens, UniProt Q8NER1). In words: Aequorin luminescence selectivity assay, capsaicin-activated TRPV1 in CHO cells. Conditions: read-out: IC50, inhibition of capsaicin activation of hTRPV1, 0.5 μM capsaicin, evaluated up to 5 μM.

One may read the IC50 as the midpoint of a concentration-inhibition curve. A word on the EC50: it is the concentration that produces a half-maximal response. For the compound `COc1ccc(C(=O)NC(Sc2ccc(Cl)cc2)C(Cl)(Cl)Cl)cc1` (centres unmarked), the IC50 at hTRPA1 [1] came to 29 nM; at hTRPA1 [2] it was 260 nM; at hTRPA1 [3], 91 nM. For the same compound, the “inward currents induced by compound alone, rat TRPA1” value (from here on “inward currents induced”) at rTRPA1 is given as “induced inward currents”. For the same compound, on rat TRPA1, the “maximum efficacy at rat TRPA1 compared to 80 μM AITC efficacy” value is listed as “approximately 35%”. The EC50 on rat TRPA1 came out at 115 nM.
Regarding `O=C(NC(Sc1ccc(Cl)cc1)C(Cl)(Cl)Cl)c1ccc([N+](=O)[O-])cc1` (centres unmarked), the 50% inhibitory concentration (IC50) was 105 nM on hTRPA1 [1]; more than 5000 nM at hTRPV1; 167 nM at hTRPA1 [2]; more than 30000 nM at rat TRPA1; 35 nM at hTRPA1 [3]. On rTRPA1, the “block of currents generated by 80 μM AITC, rat TRPA1” value is on record as “nor significantly blocked currents”. Besides, the “inward currents induced” value at rTRPA1 is “neither inducing any inward currents by themselves”. The “agonism at rat TRPA1 (increase in intracellular calcium by compound alone)” value at rat TRPA1 is listed as “did not induce an increase in intracellular calcium”.
For `O=C(NC(Sc1ccc(Cl)cc1)C(Cl)(Cl)Cl)c1ccc(Br)cc1` (centres unmarked), the IC50 at hTRPA1 [1] was 28 nM; at hTRPV1, more than 5000 nM; on hTRPA1 [2] it was 252 nM; on rat TRPA1, more than 30000 nM; at hTRPA1 [3], 51 nM. In addition, the “block of currents generated by 80 μM AITC, rat TRPA1” value at rTRPA1 is given as “nor significantly blocked currents”. Further, on rTRPA1, the “inward currents induced” value is “neither inducing any inward currents by themselves”. Moreover, on rat TRPA1, the “agonism at rat TRPA1 (increase in intracellular calcium by compound alone)” value is given as “did not induce an increase in intracellular calcium”.
Take `O=C(NC(Sc1ccc(Cl)cc1)C(Cl)(Cl)Cl)c1ccccc1` (centres unmarked): the IC50 at hTRPA1 [1] was 7 nM; on hTRPV1, more than 5000 nM; on hTRPA1 [2], 120 nM; on hTRPA1 [3] it was 21 nM. Further, the “inward currents induced” value at rTRPA1 is “induced inward currents”. Besides, the “maximum efficacy at rat TRPA1 compared to 80 μM AITC efficacy” value on rat TRPA1 was “approximately 50%”. Besides, the EC50 at rat TRPA1 was found to be 66 nM.
